Measured values from PMC3510514 (Nucleic Acids Research, 2012).

Target: T1, GST-ubiquitin (human, UniProt P0CG48 1-76)
T1 construct: ubiquitin, the cut product of the polyubiquitin precursor; also called GST-tagged ubiquitin; source: purified
Assay: pull-down; GST-ubiquitin (3 μg) on glutathione-sepharose beads, FLAG-Spartan (1 μg) in solution; 4 h at 4°C, buffer I (40 mM Tris HCl pH 7.5, 85 mM NaCl, 0.1 mM DTT, 10% glycerol, 0.01% NP40); immunoblot with anti-FLAG and anti-GST
Details: both partners purified

B1: FLAG-Spartan (wild type) (natural protein, human, UniProt Q9H040 1-489, looked up)
chain: MDDDLMLALRLQEEWNLQEAERDHAQESLSLVDASWELVDPTPDLQALFVQFNDQFFWGQLEAVEVKWSVRMTLCAGICSYEGKGGMCSIRLSEPLLKLRPRKDLVETLLHEMIHAYLFVTNNDKDREGHGPEFCKHMHRINSLTGANITVYHTFHDEVDEYRRHWWRCNGPCQHRPPYYGYVKRATNREPSAHDYWWAEHQKTCGGTYIKIKEPENYSKKGKGKAKLGKEPVLAAENKDKPNRGEAQLVIPFSGKGYVLGETSNLPSPGKLITSHAINKTQDLLNQNHSANAVRPNSKIKVKFEQNGSSKNSHLVSPAVSNSHQNVLSNYFPRVSFANQKAFRGVNGSPRISVTVGNIPKNSVSSSSQRRVSSSKISLRNSSKVTESASVMPSQDVSGSEDTFPNKRPRLEDKTVFDNFFIKKEQIKSSGNDPKYSTTTAQNSSSSSSQSKMVNCPVCQNEVLESQINEHLDWCLEGDSIKVKSEESL
notes: Spartan/C1orf124, human; cDNA clone bought from ImaGenes; also called C1orf124; WT Spartan; source: S. cerevisiae BJ5464, purified (glutathione-Sepharose, eluted by PreScission protease); not shown: GST, N-terminal, cleaved; FLAG, N-terminal, kept
binding result: binds
